Measured values: PMC8228819, “Comparison of a Short Linear Antimicrobial Peptide with Its Disulfide-Cyclized and Cyclotide-Grafted Variants against Clinically Relevant Pathogens” (Microorganisms, 2021)
≈ marks a conversion by molar mass, not a printed value. Where two headings read alike, the source gives them in different places.

Test system: Escherichia coli, ATCC 25922
Format: cell-based
Conditions: single measurement (asterisk)
Procedure: The following strains were used in this study: Escherichia coli, ATCC 25922, Staphylococcus aureus, epidemic methicillin-resistant EMRSA-15, Klebsiella pneumoniae, clinical isolate from St George’s, University of London (SGUL, London, UK), Acinetobacter baumannii, clinical isolate from SGUL, Pseudomonas aeruginosa, PA01 wildtype strain, and Enterococcus faecalis, vancomycin-resistant ATCC 51299.
The minimal inhibitory concentration (MIC) was determined in a microdilution assay using Mueller–Hinton (MH) or Brain Heart Infusion Broth (BHI) broth following a previously published protocol. Briefly, a twofold serial dilution of the antibiotics and peptides were prepared and added to a bacteria solution, resulting in 2–5 10^5 CFU/mL. The microtiter plates (polypropylene, Corning, Corning, NY, USA) were incubated for 18 h at 37 °C and MICs were taken visually. Based on our experience with proline rich peptides, their low activity in Mueller–Hinton broth, and their strong activity in diluted broth, we decided to also measure the activity of the peptide set in a 1/5 dilution of the broth. MICs in the presence of serum were established using human serum (Zen-Bio, Durham, NC, USA) and heat-inactivated serum (Sigma-Aldrich, St. Louis, MO, USA). A total of 20% (v/v) of each human serum was mixed with bacterial solution and added to predetermined concentrations of antibiotics and peptides, resulting in a final 10% (v/v) concentration of serum and 2–5 × 10^5 bacteria.

CC[C@H](C)[C@H](NC(=O)CN)C(=O)NCC(=O)N[C@@H](C)C(=O)N[C@H](C(=O)N[C@@H](CC(C)C)C(=O)N[C@@H](CCCCN)C(=O)N[C@H](C(=O)N[C@@H](CC(C)C)C(=O)N[C@H](C(=O)N[C@H](C(=O)NCC(=O)N[C@@H](CC(C)C)C(=O)N1CCC[C@H]1C(=O)N[C@@H](C)C(=O)N[C@@H](CC(C)C)C(=O)N[C@H](C(=O)N[C@@H](CO)C(=O)N[C@@H](Cc1c[nH]c2ccccc12)C(=O)N[C@H](C(=O)N[C@@H](CCCCN)C(=O)N[C@@H](CCCNC(=N)N)C(=O)N[C@@H](CCCCN)C(=O)N[C@@H](CCCNC(=N)N)C(=O)N[C@@H](CCC(N)=O)C(=O)N[C@@H](CCC(N)=O)C(N)=O)[C@@H](C)CC)[C@@H](C)CC)[C@@H](C)O)[C@@H](C)O)C(C)C)C(C)C [Melittin, reference compound]
MIC (1/5 MH + 10% heat inactivated human serum): 11 µM
MIC (1/5 MH + 10% human serum): 11 to 22 µM
MIC (1/5 MH): 3 µM (≈ 8.54 µg/mL)
MIC (MH): 16 µM (≈ 45.5 µg/mL)
